In patent US12172986B2, “Splicing modulator antibody-drug conjugates and methods of use” (EISAI R&D MANAGEMENT CO., LTD., priority 2018, dated 2024):

B1: AB206-ADL1-D14 (conjugate)
heavy: EVQLLESGGGLVQPGGSLRLSCAASGFTFSHYMMAWVRQAPGKGLEWVSRIGPSGGPTHYADSVKGRFTISRDNSKNTLYLQMNSLRAEDTAVYYCAGYDSGYDYVAVAGPAEYFQHWGQGTLVTVSSASTKGPSVFPLAPSSKSTSGGTAALGCLVKDYFPEPVTVSWNSGALTSGVHTFPAVLQSSGLYSLSSVVTVPSSSLGTQTYICNVNHKPSNTKVDKKV[sequence of human IgG1 Fc not given]
light: DIQMTQSPSSLSASVGDRVTITCRASQSISTWLAWYQQKPGKAPKLLIYKASNLHTGVPSRFSGSGSGTEFSLTISGLQPDDFATYYCQQYNSYSRTFGQGTKVEIKRTVAAPSVFIFPPSDEQLKSGTASVVCLLNNFYPREAKVQWKVDNALQSGNSQESVTEQDSKDSTYSLSSTLTLSKADYEKHKVYACEVTHQGLSSPVTKSFNRGEC
B2: AB206-ADL12-D1 (conjugate)
heavy: B1 heavy
light: B1 light
B3: AB206-ADL5-D15 (conjugate)
heavy: B1 heavy
light: B1 light
B4: AB206-ADL12-D2 (conjugate)
heavy: B1 heavy
light: B1 light
B5: AB206-ADL5-D25 (conjugate)
heavy: B1 heavy
light: B1 light
B6: AB206-ADL5-D19 (conjugate)
heavy: B1 heavy
light: B1 light
B7: AB206-ADL1-D4 (conjugate)
heavy: B1 heavy
light: B1 light
B8: AB206-ADL5-D2 (conjugate)
heavy: B1 heavy
light: B1 light
B9: AB206-ADL10-D1 (conjugate)
heavy: B1 heavy
light: B1 light
B10: AB206-ADL1-D8 (conjugate)
heavy: B1 heavy
light: B1 light

Experiments:
Format in all cases: physicochemical
[1] = SEC analysis - aggregation / percent monomer; conditions: anti-EPHA2 ADCs
Protocol: The peak area absorbance at 280 nm was determined for the high molecular weight and monomeric conjugate components by area under the curve integration.
SEC analysis was performed as described in section 3.3.2.

[2] = HPLC analysis - free drug; conditions: anti-EPHA2 ADCs
Protocol: Conjugate was precipitated with 10 volumes of acetonitrile on ice for 2 hours and spun down. Supernatants containing residual unconjugated payload were then injected onto an Agilent Poroshell 120 SB—C18 120A column (4.6×100 mm, 2.7 μm) and eluted with a gradient of 45% B to 70% B over 10 min at RT. Mobile phase A was 100% water, mobile phase B was 100% acetonitrile, and the flow rate was 0.6 mL/min with detection at 252 nm. The amount of residual free drug was quantified via UV detection with comparison to the external standard curve of unconjugated linker-payload.
HPLC analysis was performed as described in section 3.3.3.

LC/MS analysis - DAR = conditions: anti-EPHA2 ADCs, Table 17

Row | Molecule | Percent Monomer [1] [%] | Free Drug (%) [2] [%] | DAR (LC/MS analysis - DAR)
1 | B1 | 80.000 | <2 | –
2 | B2 | 90.000 | <2 | –
3 | B3 | 96.000 | <2 | –
4 | B4 | 80.000 | <2 | –
5 | B5 | 96.000 | <2 | 6.000
6 | B6 | 97.000 | <2 | –
7 | B7 | 95.000 | <2 | –
8 | B8 | 99.000 | <2 | –
9 | B9 | 97.000 | <2 | –
10 | B10 | 95.000 | <2 | –
